Source: patent US5521199A, “Piperidinyl compounds as neurokinin receptor antagonists” (Zeneca Limited, priority 1993, dated 1996)

Chains of the proteins cited; added tags and fusions are not shown.
UniProt P21452, whole entry: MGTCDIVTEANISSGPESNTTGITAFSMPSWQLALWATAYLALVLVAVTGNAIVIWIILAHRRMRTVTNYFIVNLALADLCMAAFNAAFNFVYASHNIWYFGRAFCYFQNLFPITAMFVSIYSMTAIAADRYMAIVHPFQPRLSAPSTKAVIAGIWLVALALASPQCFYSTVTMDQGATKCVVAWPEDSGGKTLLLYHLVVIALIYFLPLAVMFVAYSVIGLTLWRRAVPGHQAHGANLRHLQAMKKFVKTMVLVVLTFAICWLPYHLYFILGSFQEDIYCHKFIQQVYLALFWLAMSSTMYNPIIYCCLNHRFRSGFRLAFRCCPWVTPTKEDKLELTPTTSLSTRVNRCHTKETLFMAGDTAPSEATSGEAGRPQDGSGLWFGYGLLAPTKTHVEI

Molecular target: human NK2 receptor (Homo sapiens, UniProt P21452)
Assay: Neurokinin A (NKA) Receptor-binding Assay (Test A)
Details: read-out: IC50 versus 3H-NKA binding to MELM, 60 min at 25° C., pH 7.4

IC50: 30 nM
SMILES: CSCCC1NC(=O)C(CC(C)C)NC(=O)CNC(=O)C(Cc2ccccc2)NC(=O)C(Cc2c[nH]c3ccccc23)NC(=O)C(CCC(N)=O)NC1=O (stereo not shown)
